Results: patent publication US20260124194A1 (priority 2022, published 2026)
“And” between values parts separate entries of the source, which are not always exact repeats. Equal entries are not always repeated. Where two headings read alike, the source gives them in different places. Marks after values point to notes of the source that are not given here.

Legend:
5-HT4 receptor mRNA = conditions: mouse, in vivo, ip
[1] = tested on: Prp-SCA7-92Q transgenic mice; test: Bowel dilatation in Prp-SCA7-92Q transgenic mice; type: in vivo; conditions: Prp-SCA7-92Q mice
[2] = tested on: 5HT4 serotoninergic receptor mRNA; conditions: mouse, in vivo
MAP2+ neurons [3] = conditions: mouse, in vivo, po
[4] = tested on: AKT/mTOR/p70s6k signal pathway; conditions: mouse, in vivo, po
[5] = tested on: neuronal and glia cells (SOX10+, HuCD+); conditions: mouse, in vivo, ip
nNOS and ChAT proteins = conditions: mouse, in vivo, po
[6] = tested on: subjects with idiopathic Chronic Intestinal Pseudo-Obstruction (CIPO); conditions: in vivo
Description: Visits where assessed at the beginning of the screening period (Visit 1), at the beginning and at the end of each period of treatment (Visit 2 to Visit 9) and at the end of the follow-up period (Visit 10).
PLA=matching placebo once daily for 4 weeks.
Gastrointestinal symptom severity (abdominal pain, bloating, nausea and vomiting) and bowel habit (weekly recall) were registered on Day −1 and weekly after randomization, during both treatment and washout periods, as appropriate according to the Schedule of Assessments using an e-diary until end of follow up period.
Subjects were instructed to take three capsules of medication orally, once daily at approximately the same time each morning, on an empty stomach, with water.
The Primary efficacy endpoints was to evaluate the change in weekly global gastrointestinal symptoms average index score (WGGSAIS) from start to the end of each treatment period.
The WGGSAIS was obtained by averaging the scores for each of the 4 symptoms assessed weekly: abdominal pain, bloating, nausea and vomiting, with lower scores representing better health. If at least 2 symptoms were assessed, the average score was calculated, otherwise, it was considered missing.
Change between the end of treatment and pre-treatment WGGSAIS value≤−1 point was computed and considered a “success” while changes >−1 were considered a “failure”. The proportion of subjects with a 1-point improvement in WGGSAIS is summarized by treatment sequence, period and timepoint (weekly evaluation by e Diary.
Considering the evaluable pairs, the proportions of pairs of observations with 1-point improvement in WGGSAIS is summarized by treatment and timepoint. […]

ChAT+ myenteric neurons = conditions: mouse, in vivo, ip
[7] = tested on: diabetic and idiopathic gastroparesis subjects; conditions: human, in vivo; cited from earlier work
nitrergic neurons (NOS+) = conditions: mouse, in vivo, po
[8] = tested on: subjects with idiopathic Chronic Intestinal Pseudo-Obstruction (CIPO); conditions: in vivo; remark: listed apart in the source
[9] = tested on: cholinergic neurons (ChAT+); conditions: mouse, in vivo, po
calretinin neurons = conditions: mouse, in vivo, po
MAP2+ neurons [10] = conditions: mouse, in vivo, ip
[11] = tested on: subjects with idiopathic Chronic Intestinal Pseudo-Obstruction (CIPO)
[12] = tested on: Hu+ neurons with ataxin-7 inclusions; conditions: mouse, in vivo, po
[13] = tested on: Rb1 cKO retinoblastoma mice; conditions: mouse, in vivo, ip

Structure (SMILES): CC(C)n1c(=O)c(C(=O)N[C@H]2C[C@H]3CC[C@@H](C2)N3C[C@@H](O)CN(C)S(C)(=O)=O)cc2ccccc21 [velusetrag, 1-isopropyl-2-oxo-1,2-dihydroquinoline-3-carboxylic acid {(1S,3R,5R)-8-[(R)-2-hydroxy-3-(methanesulfonyl-methyl-amino)propyl]-8-azabicyclo[3.2.1]oct-3-yl}amide]
- mRNA 5HT4, DSI (5-HT4 receptor mRNA): 0.87 ± 0.03^∘ and 1.02 ± 0.09^∘
- mRNA 5HT4, Proximal colon (5-HT4 receptor mRNA): 0.88 ± 0.02 and 1.10 ± 0.05
- DSI diameter (bowel dilatation) ([1]; 1 mg/kg po once daily 5 weeks): 1.44 mm
- Prox colon diameter (bowel dilatation) ([1]; 1 mg/kg po once daily 5 weeks): 1.75 mm
- DSI diameter (bowel dilatation) ([1]; 3 mg/kg po once daily 5 weeks): 1.44 mm
- Prox colon diameter (bowel dilatation) ([1]; 3 mg/kg po once daily 5 weeks): 1.72 mm
- 5HT4R mRNA expression levels in DSI and colon [2]: not altered
- Total Neurouns (MAP2+)/Field (0.26 mm2), DSI (MAP2+ neurons [3]; 1 mg/kg): 69 ± 1.8 /Field (0.26 mm2)
- Total Neurouns (MAP2+)/Field (0.26 mm2), Proximal colon (MAP2+ neurons [3]; 1 mg/kg): 160 ± 3.0 /Field (0.26 mm2)
- Total Neurouns (MAP2+)/Field (0.26 mm2), DSI (MAP2+ neurons [3]; 3 mg/kg): 64.55 ± 1.5 /Field (0.26 mm2)
- Total Neurouns (MAP2+)/Field (0.26 mm2), Proximal colon (MAP2+ neurons [3]; 3 mg/kg): 157 ± 4.0 /Field (0.26 mm2)
- AKT/Actin ([4]; 1 mg/kg): 3.0 ± 0.6
- P70S6K ([4]; 1 mg/kg): 3.4 ± 1.0
- mTOR/Actin ([4]; 1 mg/kg): 6.4 ± 2.0
- pAKT/Actin ([4]; 1 mg/kg): 6.4 ± 1.7
- pmTOR/Actin ([4]; 1 mg/kg): 7.5 ± 2.4
- AKT/Actin ([4]; 3 mg/kg): 2.0 ± 0.5
- P70S6K ([4]; 3 mg/kg): 1.5 ± 0.5^∘
- mTOR/Actin ([4]; 3 mg/kg): 1.7 ± 0
- pAKT/Actin ([4]; 3 mg/kg): 3.6 ± 1.3
- pmTOR/Actin ([4]; 3 mg/kg): 2.4 ± 1.2
- HuCD+ mm^2, DSI [5]: 386 ± 11 mm^2 and 328.8 ± 10 mm^2
- HuCD+ mm^2, Proximal colon [5]: 662 ± 32 mm^2 and 642 ± 7.8 mm^2
- SOX10+ mm^2, DSI [5]: 501.9 ± 19 mm^2 and 314 ± 12^∘∘∘ mm^2
- SOX10+ mm^2, Proximal colon [5]: 726 ± 32 mm^2 and 542 ± 10**^∘∘ mm^2
- CHAT/Actin cytoplasm (nNOS and ChAT proteins; 1 mg/kg): 0.94
- nNOS/Actin cytoplasm (nNOS and ChAT proteins; 1 mg/kg): 1.12
- CHAT/Actin cytoplasm (nNOS and ChAT proteins; 3 mg/kg): 0.93
- nNOS/Actin cytoplasm (nNOS and ChAT proteins; 3 mg/kg): 0.91
- Bristol scale class Constipation at the end of treatment, n pairs [6]: 0
- Pseudo-obstruction episodes in the group [6]: 4 episodes
- frequency of constipation at the end of treatment [6]: 0%
- mean change in number of weekly bowel movements [6]: 1.7±2.34
- mean change in number of weekly complete evacuations [6]: 0.7±1.21
- mean number of weekly bowel movements [6]: 4.8±2.14
- mean number of weekly complete evacuations [6]: 2.2±1.17
- pairs classified as Diarrhea at end of treatment, % [6]: 75.00%
- pairs classified as Normal at end of treatment, % [6]: 25.00%
- pairs with 0 pseudo-obstruction episodes during treatment period, % [6]: (90.00) %
- pairs with 0 pseudo-obstruction episodes during wash-out period, % [6]: (100.00) %
- vomiting symptom score, mean [6]: 0.5±0.95
- vomiting symptom score, mean difference between velusetrag and placebo in changes between pre-treatment and end of treatment [6]: −0.8±1.44
- ChAT+ myenteric neurons/Field (0.41 mm^2), Proximal colon (ChAT+ myenteric neurons): 169.7 ± 4.8 neurons/Field (0.41 mm^2) and 187.4 ± 5.9 neurons/Field (0.41 mm^2)
- gastric emptying (GE) time [7]: effective to accelerate gastric emptying
- Neurons NOS+ field (0.26 mm^2), Proximal colon (nitrergic neurons (NOS+); 1 mg/kg): 31 ± 1.5**^∘∘ field (0.26 mm^2)
- Neurons NOS+/field (0.26 mm^2), DSI (nitrergic neurons (NOS+); 1 mg/kg): 22.0 ± 0.6*^∘∘∘∘ /field (0.26 mm^2)
- Neurons NOS+ field (0.26 mm^2), Proximal colon (nitrergic neurons (NOS+); 3 mg/kg): 32 ± 1.0**^∘∘∘∘ field (0.26 mm^2)
- Neurons NOS+/field (0.26 mm^2), DSI (nitrergic neurons (NOS+); 3 mg/kg): 19.9 ± 0.5**^∘∘∘ /field (0.26 mm^2)
- Orocecal transit time, between-treatment difference of changes [8]: −16.4
- Orocecal transit time, mean [8]: 162.9 ± 67.32 min and 162.9 min
- Orocecal transit time, mean change between velusetrag and placebo [8]: −81.8
- Orocecal transit time, mean change from Visit 1 (Screening) [8]: -6.4 ± 118.70 min and -6.4 min
- % neurons (ChAT+) with ataxin-7 inclusions, Proximal colon ([9]; 1 mg/kg): 27.8 ± 1.1 %
- % neurons ChAT+ with ataxin-7 inclusions, DSI ([9]; 1 mg/kg): 14.3 ± 1.0 %
- Neurons ChAT+ field (0.26 mm^2), Proximal colon ([9]; 1 mg/kg): 94.4 ± 2.4^∘ field (0.26 mm^2)
- Neurons ChAT+/field (0.26 mm^2), DSI ([9]; 1 mg/kg): 73.3 ± 1.8^∘∘ /field (0.26 mm^2)
- % neurons (ChAT+) with ataxin-7 inclusions, Proximal colon ([9]; 3 mg/kg): 24.6 ± 1.5 %
- % neurons ChAT+ with ataxin-7 inclusions, DSI ([9]; 3 mg/kg): 13.6 ± 0.9 %
- Neurons ChAT+ field (0.26 mm^2), Proximal colon ([9]; 3 mg/kg): 81.9 ± 2.4 field (0.26 mm^2)
- Neurons ChAT+/field (0.26 mm^2), DSI ([9]; 3 mg/kg): 67.2 ± 1.5^∘ /field (0.26 mm^2)
- Neurons Calretinin+/field (0.26 mm^2), DSI (calretinin neurons; 1 mg/kg): 25.4 ± 0.7 /field (0.26 mm^2)
- Neurons Calretinin+/field (0.26 mm^2), Proximal Colon (calretinin neurons; 1 mg/kg): 44.3 ± 2.0**^∘∘ /field (0.26 mm^2)
- Neurons Calretinin+/field (0.26 mm^2), DSI (calretinin neurons; 3 mg/kg): 24.3 ± 1.0 /field (0.26 mm^2)
- Neurons Calretinin+/field (0.26 mm^2), Proximal Colon (calretinin neurons; 3 mg/kg): 49.1 ± 1.8*^∘∘∘ /field (0.26 mm^2)
- Total (MAP2+) neurons/field (0.26 mm^2), DSI (MAP2+ neurons [10]): 72.3 ± 2.3^∘ neurons/field (0.26 mm^2) and 81.4 ± 2.7^∘∘ neurons/field (0.26 mm^2)
- Total (MAP2+) neurons/field (0.26 mm^2), Proximal colon (MAP2+ neurons [10]): 93.8 ± .4^∘ neurons/field (0.26 mm^2) and 79.8 ± 4.2 neurons/field (0.26 mm^2)
- treatment-related TEAEs and cardiovascular adverse reactions ([11]; Safety Set): no treatment-related TEAEs were observed and no cardiovascular adverse reactions were observed
- deaths, serious TEAEs, TEAEs leading to discontinuation or interruption ([11]; Safety Set, 17 subjects): No deaths, serious TEAEs, or TEAEs leading to treatment discontinuation or treatment interruption were reported
- overall safety and tolerability ([11]; all regimens studied): safe and well-tolerated
- % neurons Hu+ with ataxin-7 inclusions, DSI ([12]; 1 mg/kg): 22.3 ± 0.04****^∘ %
- % neurons Hu+ with ataxin-7 inclusions, Proximal colon ([12]; 1 mg/kg): 24.1 ± 0.03****^ %
- Total neurons Hu+, DSI ([12]; 1 mg/kg): 91 ± 7.8^∘
- Total neurons Hu+, Proximal colon ([12]; 1 mg/kg): 145.1 ± 8.9^∘∘
- % neurons Hu+ with ataxin-7 inclusions, DSI ([12]; 3 mg/kg): 13.6 ± 0.02****^∘∘∘ %
- % neurons Hu+ with ataxin-7 inclusions, Proximal colon ([12]; 3 mg/kg): 17.8 ± 0.02****^∘ %
- Total neurons Hu+, DSI ([12]; 3 mg/kg): 99.9 ± 2.6^∘
- Total neurons Hu+, Proximal colon ([12]; 3 mg/kg): 175.2 ± 2.9^∘∘∘∘
- DSI diameter [13]: 1.48 ± 0.02 mm and 1.44 ± 0.01 mm
- Prox Colon diameter [13]: 1.65 ± 0.01 mm and 1.58 ± 0.01***^∘ mm
